# In patent US11548915B2, “Composition for overcoming resistance to EGFR-targeting agent” (Pinetree Therapeutics, Inc., priority 2016, dated 2023):
# How the values were obtained:
# [1] = tested on: colorectal cancer lines having resistance to Ctx due to KRas and BRaf mutations; test: MTT cell proliferation assay, colorectal cancer; assay type: cell-based; conditions: 0.2 μM or 1 μM, 72 hours
# [2] = tested on: tumor tissues of xenograft mice; test: Immunohistochemistry of dissected tumor tissue (Ki-67, TUNEL); assay type: in vivo, BALB/c nude mice; conditions: tumor dissected 5 hours after last administration
# Experimental: The dissected tumor tissue was fixed with 4% paraformaldehyde at 4° C. for 24 hours, and kept in 30% sucrose buffer at 4° C. for 24 hours. […] In addition, to examine apoptosis, the tumor tissue was stained with DeadEnd™ Colorimetric TUNEL System (Promega), and the nucleus was stained (blue fluorescence) with Hoechst 33342, followed by confocal microscopic observation.
# [3] = tested on: Ctx^R lung cancer cell lines; test: WST-1 cell viability after NRP1 siRNA; assay type: cell-based; conditions: 2 μM, 48 hours
# [4] = tested on: Ctx^R HCC44 and A549; test: FACS analysis of endocytosis of NRP1 and integrin β3; assay type: cell-based; conditions: 2 μM, 15 minutes, 37° C., serum-free; FACS cell surface level
# Excerpt: Then, the cells were washed with PBS and analyzed using the flow cytometer FACS Calibur (BD Bioscience).
# [5] = tested on: Calu-3; test: WST-1 cell viability assay; conditions: Calu-3, NRP1-expressing; 0, 1, 2, and 4 μM, 48 hours
# [6] = tested on: H1975; test: WST-1 cell viability assay; conditions: H1975, NRP1-expressing; 0, 1, 2, and 4 μM, 48 hours
# [7] = tested on: H522; test: WST-1 cell viability assay; conditions: H522, expressing no NRP1; 0, 1, 2, and 4 μM, 48 hours
# [8] = tested on: H1299; test: WST-1 cell viability assay; conditions: H1299, NRP1-expressing; 0, 1, 2, and 4 μM, 48 hours
# [9] = tested on: A549; test: WST-1 cell viability assay; conditions: A549, NRP1-expressing; 0, 1, 2, and 4 μM, 48 hours
# [10] = tested on: Calu-1; test: WST-1 cell viability assay; conditions: Calu-1, NRP1-expressing; 0, 1, 2, and 4 μM, 48 hours
# [11] = tested on: H358; test: WST-1 cell viability assay; conditions: H358, NRP1-expressing; 0, 1, 2, and 4 μM, 48 hours
# [12] = tested on: H441; test: WST-1 cell viability assay; conditions: H441, NRP1-expressing; 0, 1, 2, and 4 μM, 48 hours
# [13] = tested on: H2009; test: WST-1 cell viability assay; conditions: H2009, NRP1-expressing; 0, 1, 2, and 4 μM, 48 hours
# [14] = tested on: HCC44; test: WST-1 cell viability assay; conditions: HCC44, NRP1-expressing; 0, 1, 2, and 4 μM, 48 hours
# [15] = tested on: HCC2108; test: WST-1 cell viability assay; conditions: HCC2108, expressing no NRP1; 0, 1, 2, and 4 μM, 48 hours
# [16] = tested on: SK-LU-1; test: WST-1 cell viability assay; conditions: SK-LU-1, NRP1-expressing; 0, 1, 2, and 4 μM, 48 hours
# [17] = tested on: H460; test: WST-1 cell viability assay; conditions: H460, expressing no NRP1; 0, 1, 2, and 4 μM, 48 hours
# [18] = tested on: Miapaca-2; test: MTT cell proliferation assay; conditions: Miapaca-2 (Ctx^S); 0, 1, 2, 4 μM twice at 48-hour intervals, total 96 hours
# [19] = tested on: AsPC-1; test: MTT cell proliferation assay; conditions: AsPC-1 (Ctx^S); 0, 1, 2, 4 μM twice at 48-hour intervals, total 96 hours
# [20] = tested on: BxPC-3; test: MTT cell proliferation assay; conditions: BxPC-3 (Ctx^R); 0, 1, 2, 4 μM twice at 48-hour intervals, total 96 hours
# [21] = tested on: PANC-1; test: MTT cell proliferation assay; conditions: PANC-1 (Ctx^R); 0, 1, 2, 4 μM twice at 48-hour intervals, total 96 hours
# [22] = tested on: Capan-2; test: MTT cell proliferation assay; conditions: Capan-2 (Ctx^R); 0, 1, 2, 4 μM twice at 48-hour intervals, total 96 hours
# [23] = tested on: SW1990; test: MTT cell proliferation assay; conditions: SW1990 (Ctx^R, expressing no NRP1); 0, 1, 2, 4 μM twice at 48-hour intervals, total 96 hours
# [24] = tested on: Miapaca-2; test: Annexin V-FITC apoptosis assay (FACS); conditions: Miapaca-2 (Ctx^S); 4 μM, 48 hours
# [25] = tested on: AsPC-1; test: Annexin V-FITC apoptosis assay (FACS); conditions: AsPC-1 (Ctx^S); 4 μM, 48 hours
# [26] = tested on: BxPC-3; test: Annexin V-FITC apoptosis assay (FACS); conditions: BxPC-3 (Ctx^R); 4 μM, 48 hours
# [27] = tested on: PANC-1; test: Annexin V-FITC apoptosis assay (FACS); conditions: PANC-1 (Ctx^R); 4 μM, 48 hours
# [28] = tested on: Ctx^R BxPC-3 and PANC-1; test: FACS analysis of receptor endocytosis; conditions: 2 μM, 0-60 min, 37° C., serum-free; FACS cell surface level
# [29] = tested on: Ctx^R BxPC-3 and PANC-1; test: Cell adhesion assay to fibronectin (FN); conditions: pretreated with 100 nM at 37° C. for 30 minutes
# [30] = tested on: phosphorylation of FAK, Src and Akt in Ctx^R tumor tissue; test: Western blot on dissected tumor tissues; conditions: Ctx^R tumor dissected 5 hours after last administration
# [31] = tested on: Ctx^R SW1990 cells expressing no NRP1; test: Western blot of signal inhibitory effects; conditions: 2 μM, 24 hours
# [32] = Mouse weight during xenograft experiments; conditions: BxPC-3, PANC-1 and AsPC-1 xenograft mice; compared to PBS
# [33] = tested on: Ctx^R BxPC-3 xenograft; test: In vivo tumor growth inhibition, xenograft; conditions: intravenous, compared to the control PBS
# [34] = tested on: Ctx^R PANC-1 xenograft; test: In vivo tumor growth inhibition, xenograft; conditions: intravenous, compared to the control PBS
# [35] = tested on: Ctx^S AsPC-1 xenograft; test: In vivo tumor growth inhibition, xenograft; conditions: intravenous
# [36] = tested on: Ctx^R pancreatic cancer cell lines; test: MTT cell proliferation after NRP1, integrin-β1 or cMet siRNA; conditions: NRP1 siRNA; 2 μM, 48 hours
substance,measurement,setting,value
"Ctx-TPP11: NRP1-binding TPP11 peptide fused to C-terminus of Ctx heavy chain by (G4S)3 linker; heavy chain SEQ ID NO: 4, light chain SEQ ID NO: 8","overcoming resistance to Ctx (cell proliferation, MTT)",[1],did not overcome the resistance
same,apoptotic marker TUNEL in tumor tissue,[2],an increased amount of the apoptotic marker
same,growth marker Ki-67 in tumor tissue,[2]; IHC,a decreased amount of the growth marker
same,cell growth inhibitory activity when expression of NRP1 is inhibited,[3],disappeared
same,endocytosis of NRP1,[4],increased the endocytosis of NRP1
same,endocytosis of integrin β3,[4],increased the endocytosis of integrin β3
same,cell growth inhibitory activity (WST-1),[5],showed the same inhibitory activity against cell growth
same,cell growth inhibitory activity (WST-1),[6],showed the same inhibitory activity against cell growth
same,cell growth inhibitory activity (WST-1),[7],showed no activity
same,cell growth inhibitory activity (WST-1),[8],showed cell growth inhibitory activity
same,cell growth inhibitory activity (WST-1),[9],showed cell growth inhibitory activity
same,cell growth inhibitory activity (WST-1),[10],showed cell growth inhibitory activity
same,cell growth inhibitory activity (WST-1),[11],showed cell growth inhibitory activity
same,cell growth inhibitory activity (WST-1),[12],showed cell growth inhibitory activity
same,cell growth inhibitory activity (WST-1),[13],showed cell growth inhibitory activity
same,cell growth inhibitory activity (WST-1),[14],showed cell growth inhibitory activity
same,cell growth inhibitory activity (WST-1),[15],showed no activity
same,cell growth inhibitory activity (WST-1),[16],showed cell growth inhibitory activity
same,cell growth inhibitory activity (WST-1),[17],showed no activity
same,cell growth inhibition (MTT),[18],showed the same cell growth inhibitory ability
same,cell growth inhibition (MTT),[19],showed the same cell growth inhibitory ability
same,cell growth inhibition (MTT),[20],showed cell growth inhibition
same,cell growth inhibition (MTT),[21],showed cell growth inhibition
same,cell growth inhibition (MTT),[22],showed cell growth inhibition
same,cell growth inhibition (MTT),[23],showed no effect
same,apoptosis (annexin V-FITC),[24],induced apoptosis in the same manner
same,apoptosis (annexin V-FITC),[25],induced apoptosis in the same manner
same,apoptosis (annexin V-FITC),[26],induced apoptosis
same,apoptosis (annexin V-FITC),[27],induced apoptosis
same,endocytosis of EGFR,[28],increased the endocytosis of EGFR
same,endocytosis of NRP1,[28],increased the endocytosis of NRP1
same,endocytosis of active integrin β1,[28],increased the endocytosis of active integrin β1
same,adhesion of cells to FN,[29],reduced the adhesion of Ctx^R cells to FN
same,"phosphorylation of FAK, Src and Akt in tumor tissue",[30],"inhibited the phosphorylation of FAK, Src and Akt"
same,signal inhibitory effects (Western blot),[31],did not appear
same,change in the weight of the mice (toxicity),[32],little or no change in the weight of the mice
same,"tumor growth (tumor volume, tumor weight)",[33],inhibited the tumor growth
same,"tumor growth (tumor volume, tumor weight)",[34],inhibited the tumor growth
same,tumor growth inhibitory activity,[35],similar
same,cell growth inhibitory ability when expression of NRP1 is inhibited,[36],disappeared
